From patent US20070293434A9, “Binding polypeptides and methods based thereon” (priority 2000, published 2007) come the findings set out here.

Sequences of proteins named here, by UniProt entry; tags and fusion partners are left off. Residues count along the entry.
UniProt Q9Y275, 134-285 limits assumed: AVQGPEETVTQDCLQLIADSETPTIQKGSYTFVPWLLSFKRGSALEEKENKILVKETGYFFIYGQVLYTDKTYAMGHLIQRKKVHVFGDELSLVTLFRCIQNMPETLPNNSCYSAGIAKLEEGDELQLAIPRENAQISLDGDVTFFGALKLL

A word on the Kd: it is the constant that tells how readily two partners part at equilibrium. Read a low Kd as higher affinity.

The target of the experiment is BLyS (Homo sapiens, UniProt Q9Y275). In words: Fluorescence anisotropy determination of BLyS-ligand dissociation constants. In kind it is binding. The conditions noted are these: for KD compared with DX814 (in words): compared to DX814. The method, then: Dissociation constants between the synthetic peptides and BLyS (free in solution) were measured by fluorescence anisotropy (FA). In these experiments, the concentration of the fluorescein-labeled peptide is held constant and the BLyS protein concentration was varied. […] Binding reactions containing 50 nM fluorescein-labeled peptide and a varied concentration of BLyS in a volume between 10 and 20 μL per well were performed in 384 well microplates. Reactions were assayed using a Tecan Polarion fluorescence polarization plate reader. Cross-competition studies between peptides were performed using 50 nM fluorescein-labeled peptide and 1-2 μM BLyS in the presence and absence of 100 μM unlabeled peptide. […] Other buffers in which dissociation constants of BLyS Binding polypeptides were […] include: […] DX818 corresponds to isolate SEQ ID NO:340, except that Asn has been […]. The KD of several BLyS binding BAML peptides was determined by fluorescence anisotropy, performed as previously described. The sequence of DX822 without the -GGK linker (see SEQ ID NO:327) matches the BAML template sequence (see Table 10).
(Fluorescence polarisation rises when a labelled molecule tumbles more slowly, as on binding a larger partner.)

[1] abbreviates: fitc-labeled synthetic BAML peptides with GGK linker.

Read-outs that look alike come from different tables or passages of the source.

The substance Ac-ANWYDPLTKLSLPDGGK-fitc [DX818] yielded a dissociation constant (Kd) under setting [1] of 342 ± 108 nM.
On to Ac-WYDPLTKLWLPDGGK-fitc [DX815], for which the “KD compared with DX814 (in words)” value is given as “indistinguishable from that of DX814”. Also, under setting [1], the dissociation constant Kd turned out to be 31 ± 13 nM.
The substance Ac-ANWYDSLTKLWLPDGGK-fitc [DX822] returned an equilibrium dissociation constant (Kd) under setting [1] of 79 ± 54 nM.
The same measure, in the same setting: for Ac-ANWFDPLTKLWLPDGGK-fitc [DX817] the value was 32 ± 26 nM.
For the substance Ac-ANWYDPLTKLWLPDGGK-fitc [DX814], under setting [1], the dissociation constant Kd came to 26 ± 7 nM.
As for Ac-ANWYDPLTKLWLPVGGK-fitc [DX816], the “KD compared with DX814 (in words)” value is reported as “little effect on the KD”. The same substance displayed an equilibrium dissociation constant (Kd) under setting [1] of 44 ± 15 nM.
In turn, Ac-ANWYDPLTKLWFPDGGK-fitc [DX819] registered a Kd of 69 nM.
